Amino acid sequences for entries named in this document (tags omitted). A change or cut given only in a name is not applied to a line headed by its entry.
UniProt P37231: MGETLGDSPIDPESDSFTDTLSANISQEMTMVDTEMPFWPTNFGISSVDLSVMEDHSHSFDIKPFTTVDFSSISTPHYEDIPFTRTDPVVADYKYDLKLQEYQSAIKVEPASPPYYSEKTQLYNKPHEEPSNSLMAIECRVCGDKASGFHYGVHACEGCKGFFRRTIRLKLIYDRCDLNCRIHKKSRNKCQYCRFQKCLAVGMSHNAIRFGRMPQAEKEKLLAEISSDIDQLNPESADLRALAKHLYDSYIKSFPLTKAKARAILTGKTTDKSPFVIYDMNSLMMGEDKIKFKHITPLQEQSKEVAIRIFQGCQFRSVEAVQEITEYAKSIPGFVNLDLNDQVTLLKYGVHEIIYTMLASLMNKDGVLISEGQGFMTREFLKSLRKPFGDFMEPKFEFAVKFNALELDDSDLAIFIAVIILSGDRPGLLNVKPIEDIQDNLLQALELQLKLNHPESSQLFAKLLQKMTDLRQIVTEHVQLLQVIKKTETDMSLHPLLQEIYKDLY

According to ChEMBL document CHEMBL4118117, “Synthesis, biological evaluation, and molecular docking investigation of benzhydrol- and indole-based dual PPAR-γ/FFAR1 agonists” (Bioorg Med Chem Lett, 2018):

Biological target: Peroxisome proliferator-activated receptor gamma (Homo sapiens, UniProt P37231)
Test: Transactivation of recombinant human N-terminal GAL4-DBD fused PPARgamma LBD expressed in reporter cells at 30 uM measured after 24 hrs by luciferase reporter gene assay relative to control
Type: cell-based

`O=C1NC(=O)C(Cc2ccc(OCCOc3cccc4ccccc34)cc2)S1` (configuration not stated) gave a fold change (FC) of 5.7.

Compound `Cc1ccccc1C(OCCOc1ccc(CC2SC(=O)NC2=O)cc1)c1ccccc1` (configuration not stated) has a fold change (FC) of 1.9.

`O=C1NC(=O)C(Cc2ccc(OCCn3c(CO)nc4ccccc43)cc2)S1` (configuration not stated) gave a fold change (FC) of 17.1.

In the case of `O=C1NC(=O)C(Cc2ccc(OCCn3c(-c4ccccc4)cc4ccccc43)cc2)S1` (configuration not stated), the fold change (FC) was 15.1.

`O=C1NC(=O)C(Cc2ccc(OCCOC(c3ccccc3)c3ccc(Cl)cc3)cc2)S1` (configuration not stated) gave a fold change (FC) of 4.6.

`O=C1NC(=O)C(Cc2ccc(OCCn3ccc4ccc(Cl)cc43)cc2)S1` (configuration not stated) gave a fold change (FC) of 36.2.

For `COc1ccc(C(OCCOc2ccc(CC3SC(=O)NC3=O)cc2)c2ccccc2)cc1` (configuration not stated), the fold change (FC) was 5.2.
